# Apparent affinities of Ab-14 variants for a coronavirus HR2 peptide

The target is the same throughout: PDVDLGDISGINAS, from the HR2 region of SARS-CoV-2 spike.

Parent: Ab-14, a human scFv built as VH, a (GGGGS)3 linker, VL. Only the CDRs of the light chain vary.
VH: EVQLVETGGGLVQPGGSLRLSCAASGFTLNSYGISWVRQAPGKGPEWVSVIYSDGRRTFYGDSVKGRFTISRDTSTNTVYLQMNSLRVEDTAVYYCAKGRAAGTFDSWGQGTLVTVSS
VL: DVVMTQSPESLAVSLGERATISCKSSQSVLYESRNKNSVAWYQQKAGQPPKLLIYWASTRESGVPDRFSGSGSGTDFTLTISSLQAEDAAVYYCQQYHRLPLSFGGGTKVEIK

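The parent was found by panning a naive human phage display library on the peptide. The library (AAYL50) carries one to three amino acid substitutions per variant, with no insertions or deletions. In AlphaSeq, yeast of one mating type display the scFv and yeast of the other type display the target. Pairs that bind mate more often; barcode pairs of the diploids are counted by sequencing. The ratio of observed to expected reads was calibrated, replicate by replicate, on BCL2-family standards whose Kd was known from biolayer interferometry. There are three technical replicates.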

The parent's light chain CDRs are KSSQSVLYESRNKNSVA, WASTRES, QQYHRLPLS; each variant's own CDRs replace them letter for letter.
Every variant below is changed at L102 of the VL (sequential numbering).
Values are apparent Kd, the geometric mean of the replicates that gave a signal; lower means stronger binding.
A pair that was not seen in any replicate is written "nd"; this usually means weak binding, but a binder can also be missed.
As a blank, each scFv also met three strains without target: over library AAYL50, 18% of these pairings were detected, typically at 15 µM and seldom below 970 nM. The control count says in how many pairings with the empty strains this scFv gave a signal.
Parent in this assay: reference entry 4.4 nM, copy in this library 48 nM.

Variant KSSQSVLYESRNKHSVA | WASTRES | QQYHRLPVS showed 410 nM (3 of 3 replicates; controls 1 of 9). For KSSQSVLYESRNKNSVA | WASTRES | QQYHRLPHS, the assay gave nd (0 of 3 replicates; controls 0 of 9). Variant KSSQSVLYESRNKNSVA | WASTRES | EQYHRLNHS gave 5.1 nM (3 of 3 replicates; controls 1 of 9). Variant KSSQSVLYESRNKNSVA | VASTRES | QQYHRLPAM showed 2.9 µM (2 of 3 replicates; controls 1 of 9). Variant KSSQSVLYESRNKNSVN | WASTRES | QQYHRIPWS showed nd (0 of 3 replicates; controls 0 of 9). For KSSQSTLYESRNKNSVA | WKSTRES | QQYHRLPPS, the assay gave 4.8 µM (2 of 3 replicates; controls 3 of 9). Variant KSSQSVLKESRNKNSVA | WASTRES | QQYHRLPIS showed 510 nM (1 of 3 replicates; controls 1 of 9). Variant KSSQSVLYEFRNKNSVA | WASTRES | QSYHRLPTS gave 5.3 µM (1 of 3 replicates; controls 2 of 9).

For KSSQSVLCESRGKNSVA | WASTRES | QQYHRLPIS, the assay gave 230 nM (3 of 3 replicates; controls 4 of 9). Variant KSSQSVIYESRNKNSVA | WASTRER | QQYHRLPNS showed 48 µM (1 of 3 replicates; controls 1 of 9). Variant KSSQRVLYESRNSNSVA | WASTRES | QQYHRLPDS gave 57 µM (2 of 3 replicates; controls 2 of 9). With KSSQSNMYESRNKNSVA | WASTRES | QQYHRLPIS the result was 9.7 nM (3 of 3 replicates; controls 1 of 9). Variant KSSQSVLYESRNKNSDA | WQSTRES | QQYHRLPTS gave 9.0 µM (1 of 3 replicates; controls 2 of 9). Variant KSSQSVLFESRNKNSVA | WASTRES | QAYHRLPAS gave 740 nM (2 of 3 replicates; controls 3 of 9). Variant KSSQSVLYESRNKNSVA | WASTRES | QQYHRLPRS gave nd (0 of 3 replicates; controls 0 of 9). Variant KSSQSFLYESRNKNSVA | WASTRES | QQYHRLPDF showed 380 nM (3 of 3 replicates; controls 2 of 9).

For KSSQSVSWESRNKNSVA | WASTRES | QQYHRLPES, the assay gave 4.5 nM (3 of 3 replicates; controls 4 of 9). Variant KSSQSVLYESRNKNSVA | WALTRES | QMYHRLPES showed 3.0 µM (3 of 3 replicates; controls 4 of 9). Variant KSSQSFLYEIRNKNSVA | WASTRES | QQYHRLPCS showed 390 nM (2 of 3 replicates; controls 0 of 9). Variant KSSQSVYYESRNKNSVA | WASNRES | QQYHRLPAS showed 23 nM (3 of 3 replicates; controls 5 of 9). Variant KSSQSVLYESRNKNSVA | WASTRES | DQYHRLPDS showed 130 nM (3 of 3 replicates; controls 1 of 9). Variant KSSQSVLYESRWKNSMA | WASTRES | QQYHRLPYS gave nd (0 of 3 replicates; controls 1 of 9). Variant KSSQSVLYESRNKNSVA | WASTRES | QQYHRLQFS showed nd (0 of 3 replicates; controls 1 of 9). With KSSQSVLYESRNKNVVA | WASTNES | QQYHRLPTS the result was nd (0 of 3 replicates; controls 0 of 9).

For KSSQSVLIESRNKNSVA | WWSTRES | QQYHRLPVS, the assay gave 8.9 µM (1 of 3 replicates; controls 0 of 9). For KSSQSVLQESRNKNSVA | WASTRES | QQYHRLNCS, the assay gave nd (0 of 3 replicates; controls 1 of 9). For KSSVDVLYESRNKNSVA | WASTRES | QQYHRLPIS, the assay gave 610 nM (3 of 3 replicates; controls 2 of 9). With KSSQDVLYEHRNKNSVA | WASTRES | QQYHRLPMS the result was 3.9 µM (2 of 3 replicates; controls 0 of 9). With PESQSVLYESRNKNSVA | WASTRES | QQYHRLPCS the result was 32 µM (2 of 3 replicates; controls 0 of 9). With KSSQSVLYESRNKVSVA | WASTRLS | QQYHRLPES the result was nd (0 of 3 replicates; controls 1 of 9). Variant KSSQSVLYESRNKNPVA | WASTRES | QQYHREPCS showed 10 nM (3 of 3 replicates; controls 0 of 9). With KSSQSVLYESRNKQSVA | WASTRES | QQYIRLPES the result was 110 nM (3 of 3 replicates; controls 3 of 9).

Picked from the list: the 4 lowest averages where every replicate gave a value.

CDR-L1,CDR-L2,CDR-L3,Kd (apparent),seen in,control signals
KSSQSVSWESRNKNSVA,WASTRES,QQYHRLPES,4.5 nM,3 of 3,4 of 9
KSSQSVLYESRNKNSVA,WASTRES,EQYHRLNHS,5.1 nM,3 of 3,1 of 9
KSSQSNMYESRNKNSVA,WASTRES,QQYHRLPIS,9.7 nM,3 of 3,1 of 9
KSSQSVLYESRNKNPVA,WASTRES,QQYHREPCS,10 nM,3 of 3,0 of 9

Reference: Engelhart et al. 2022, doi:10.1038/s41597-022-01779-4. File: FLAb, binding data.